# Biological target: T1, Protein kinase C epsilon type (Homo sapiens, UniProt Q02156)
# T1 sequence (Q02156 whole entry): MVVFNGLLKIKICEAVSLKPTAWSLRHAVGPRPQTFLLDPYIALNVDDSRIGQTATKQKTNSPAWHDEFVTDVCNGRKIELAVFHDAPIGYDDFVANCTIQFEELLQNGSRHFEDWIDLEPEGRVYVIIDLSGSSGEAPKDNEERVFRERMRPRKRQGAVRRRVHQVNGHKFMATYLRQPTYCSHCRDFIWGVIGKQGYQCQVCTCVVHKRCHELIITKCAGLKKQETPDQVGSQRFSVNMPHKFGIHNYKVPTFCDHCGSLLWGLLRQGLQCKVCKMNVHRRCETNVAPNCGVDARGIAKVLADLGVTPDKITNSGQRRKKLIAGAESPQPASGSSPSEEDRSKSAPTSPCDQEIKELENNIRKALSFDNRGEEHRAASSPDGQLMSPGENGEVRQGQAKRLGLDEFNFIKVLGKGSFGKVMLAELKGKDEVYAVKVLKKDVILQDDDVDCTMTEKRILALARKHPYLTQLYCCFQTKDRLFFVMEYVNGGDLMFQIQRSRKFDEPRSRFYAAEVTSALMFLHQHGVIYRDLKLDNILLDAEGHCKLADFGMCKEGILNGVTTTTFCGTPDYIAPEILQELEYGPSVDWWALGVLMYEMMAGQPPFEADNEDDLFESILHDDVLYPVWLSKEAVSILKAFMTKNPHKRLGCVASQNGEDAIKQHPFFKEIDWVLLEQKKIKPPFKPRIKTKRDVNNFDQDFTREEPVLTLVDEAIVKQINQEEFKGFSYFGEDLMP
# Assay: Inhibition of Protein kinase C epsilon
row,IC50 [nM],SMILES
1,38,O=C(N[C@@H]1CNCCC[C@H]1OC(=O)c1cc(O)c(C(=O)c2c(O)cccc2C(=O)O)c(O)c1)c1ccc(O)cc1 (racemic) [BALANOL]
2,20,O=C(N[C@@H]1CNCCC[C@H]1OC(=O)c1cc(O)c(C(=O)c2c(O)cccc2C(=O)O)c(O)c1)c1ccc(O)cc1 [BALANOL]

# From ChEMBL document CHEMBL1128809, “Novel PKC inhibitory analogs of balanol with replacement of the ester functionality” (Bioorg Med Chem Lett, 1995)
